Assay results as given in patent US20250041279A1, “THERAPEUTIC MEDICINE FOR HEART DISEASE OR SKELETAL MUSCLE DISEASE” (SHIONOGI & CO., LTD., priority 2021, published 2025).

What was measured:
[1] = Metabolic stability test, human liver microsomes; assay type: in vitro ADME; conditions: 37° C., 30 minutes, NADPH
[2] = Metabolic stability test, rat; assay type: in vitro ADME; conditions: 30 minutes

For `CC(=O)N[C@@H](C)CO[C@H]1CC[C@H](Oc2nc3c(F)cc(OCC(F)F)c(F)c3n2C)CC1`, the “Remaining amount of compound, Human” value [1] was 94.8% and the “Remaining amount of compound, Rat” value [2] was 78%.
With `CC(=O)N[C@@H](C)C(F)(F)C[C@H]1CC[C@H](Oc2nc3c(F)cc(OCC(F)F)c(F)c3n2C)CO1` the “Remaining amount of compound, Human” value [1] was 93.2% and the “Remaining amount of compound, Rat” value [2] was 74%.
